Data reported in PubChem BioAssay (Tox21).
Several values for one entry are separate records, joined by “and”; a condition that tells them apart may be missing. Equal values may be shown once. This is a selection; strong and weak results do not stand in their true shares. Activity calls are given as the source filed them. Calls follow the shape of the dose curve; as a rule, active = well fitted curve in the direction sought with a large enough effect in the repeat runs; inconclusive = weak or mixed curves; inactive = flat fitted curve, though single readings scatter.

Assay: qHTS assay to test for compound auto fluorescence at 460 nm (blue) in HepG2 cells (AID 720687)
Conditions: autofluorescence 405/460 nm, 1 h, at 46 µM (top of the series)
Text: U.S. Tox21 Program National Center for Advancing Translational Sciences [NCATS] NIH Chemical Genomics Center [NCGC] U.S. Environmental Protection Agency [EPA] National Institutes of Environmental Health Sciences [NIEHS] National Toxicology Program [NTP] U.S. Food and Drug Administration [FDA] Tox21 Assay Overview: Compound auto fluorescence often interferes with screening of the compound library against various biological targets and signaling pathways. Some of these compounds may have fluorophoric properties. Such properties may interfere with the assay outputs resulting in false positives and/or negatives. To decrease such complications and ensure the compound activities are relevant in terms of biological response, the Tox21 10K compound library was screened for auto fluorescence. From the fluorophores used as reporter signals in our screening assays, the auto fluorescence equivalencies of compounds against three fluorophores have been evaluated: Triamterene, Fluorescein and Rose Bengal sodium for blue, green and red fluorescence, respectively. The fluorescence intensities were measured using Excitation/Emission wavelengths at 405/460nm, 485/535nm and 540/590nm for blue, green and red labels, respectively. This assay includes the blue fluorescence data.
Tox21 Assay Protocol Summary: 2,000 HepG2 cells in 5 uL of culture medium (MEM containing 10% FBS) per well were dispensed into black wall/clear bottom 1536-well plates using a Multidrop Combi Dispenser (ThermoFisher Scientific, Waltham, MA). The assay plates were incubated overnight at 37 C to allow cell attachment to the well bottom, followed by the transfer of 23 nL compound or DMSO vehicle by a pintool work station (Kalypsys , San Diego, CA). After the assay plates were incubated for 1 hr at 37 C and 5% CO2, fluorescence intensities in the assay plates were measured by an Envision (PerkinElmer, Shelton, CT) plate reader using three labels for measuring blue, green and red fluorescence at […] 460, 535 and 590 nm respectively.
% is scaled to controls: 0 for no effect and ±100 for the full control effect.

With `NC(=O)Nc1ccc([As](=O)(O)O)cc1` as the compound, how does the fluorescence, % of fluorescent control read?
The fluorescence, % of fluorescent control was inactive: -0.0557%.

Same assay, conditions: autofluorescence 405/460 nm, 1 h, at 91.3 µM (top of the series)

Which fluorescence, % of fluorescent control does the source give for `NC(=O)Nc1ccc([As](=O)(O)O)cc1` here?
Its fluorescence, % of fluorescent control is inactive: -0.0068%.

Same assay, conditions: autofluorescence 405/460 nm, 1 h; at 91.3 µM (top of the series) unless noted

With `N#CSc1ccc([N+](=O)[O-])cc1[N+](=O)[O-]` as the compound, how does the fluorescence, % of fluorescent control read?
Its fluorescence, % of fluorescent control is inactive: -0.626%.

For `CCCCC(CC)CO[P+](=O)OCC(CC)CCCC` (configuration not stated), which fluorescence, % of fluorescent control is on record?
Its fluorescence, % of fluorescent control is inactive: -0.0196%.

For `CCCCO[P+](=O)OCCCC`, which fluorescence, % of fluorescent control is on record?
Its fluorescence, % of fluorescent control is inactive: 0.0461% and inactive: -0.0662%.

Which fluorescence, % of fluorescent control does the source give for `O=[N+]([O-])c1ccc(S(=O)(=O)O)c([N+](=O)[O-])c1` here?
The fluorescence, % of fluorescent control was inactive: -0.0714%.

Which fluorescence, % of fluorescent control does the source give for `CC(C)CCCCCCCOP(OCCCCCCCC(C)C)Oc1ccccc1` here?
The fluorescence, % of fluorescent control was inactive: -0.0951%.

Which fluorescence, % of fluorescent control does the source give for `CCOP(=S)(CC)Sc1ccccc1` (configuration not stated) here?
Its fluorescence, % of fluorescent control is inactive: -0.0178%.

Which fluorescence, % of fluorescent control does the source give for `Cc1cc([N+](=O)[O-])c(O)c([N+](=O)[O-])c1` here?
Its fluorescence, % of fluorescent control is inactive: -0.72%.

Which fluorescence, % of fluorescent control does the source give for `Cc1cc([N+](=O)[O-])cc([N+](=O)[O-])c1O` here?
Its fluorescence, % of fluorescent control is inactive: -1.17% and inactive: -1.03%.

Which fluorescence, % of fluorescent control does the source give for `CN(C(=O)Cc1ccc(Cl)c(Cl)c1)[C@H]1CC[C@@]2(CCCO2)C[C@@H]1N1CCCC1` here?
The fluorescence, % of fluorescent control was inactive: -0.0065% [at 46 µM].

With `CN(N=O)C(=N)N[N+](=O)[O-]` as the compound, how does the fluorescence, % of fluorescent control read?
The fluorescence, % of fluorescent control was inactive: -0.0141%.

For `O=[As]c1ccccc1` (configuration not stated), which fluorescence, % of fluorescent control is on record?
Its fluorescence, % of fluorescent control is inactive: -0.178%.

For `ClP(Cl)c1ccccc1`, which fluorescence, % of fluorescent control is on record?
The fluorescence, % of fluorescent control was inactive: -0.0559%.

Which fluorescence, % of fluorescent control does the source give for `COP(=S)(Cl)OC` here?
Its fluorescence, % of fluorescent control is inactive: -0.108%.

With `O=P(Cl)(Cl)c1ccccc1` as the compound, how does the fluorescence, % of fluorescent control read?
Its fluorescence, % of fluorescent control is inactive: 0.0046%.

Which fluorescence, % of fluorescent control does the source give for `CCOC(=O)Cl` here?
The fluorescence, % of fluorescent control was inactive: -0.0106%.

Which fluorescence, % of fluorescent control does the source give for `CC(C)OP(=S)(OC(C)C)SCCNS(=O)(=O)c1ccccc1` here?
Its fluorescence, % of fluorescent control is inactive: -0.135%.

For `CCCCCCCCCCCCCC[P+](CCCCCC)(CCCCCC)CCCCCC`, which fluorescence, % of fluorescent control is on record?
The fluorescence, % of fluorescent control was inactive: -0.0302%.

For `O=P(Cl)(Oc1ccccc1)Oc1ccccc1`, which fluorescence, % of fluorescent control is on record?
Its fluorescence, % of fluorescent control is inactive: -0.0162%.

For `O=C1C2CC=CCC2C(=O)N1SC(Cl)(Cl)C(Cl)Cl` (configuration not stated), which fluorescence, % of fluorescent control is on record?
The fluorescence, % of fluorescent control was inactive: 0.0056% and inactive: 0.0241%.

With `CCNC(C)Cc1ccc2c(c1)OCO2` (configuration not stated) as the compound, how does the fluorescence, % of fluorescent control read?
Its fluorescence, % of fluorescent control is inactive: -0.0013% [at 95.7 µM].

With `O=[P+](Oc1ccccc1)Oc1ccccc1` as the compound, how does the fluorescence, % of fluorescent control read?
The fluorescence, % of fluorescent control was inactive: -0.114%.

For `O=C(OC1CN2CCC1CC2)c1ccccc1` (configuration not stated), which fluorescence, % of fluorescent control is on record?
Its fluorescence, % of fluorescent control is inactive: 0.0018% [at 46 µM].

For `COC(=O)Cl`, which fluorescence, % of fluorescent control is on record?
Its fluorescence, % of fluorescent control is inactive: 0.0145%.

Which fluorescence, % of fluorescent control does the source give for `O=[p+]1oc2ccccc2c2ccccc21` (configuration not stated) here?
The fluorescence, % of fluorescent control was inactive: -0.0945%.

Which fluorescence, % of fluorescent control does the source give for `CN(C(=O)Cc1cccc2occc12)[C@H]1CC[C@@]2(CCCO2)C[C@@H]1N1CCCC1` here?
The fluorescence, % of fluorescent control was inactive: 0.0326%.
